This data set has as its system Artemia salina nauplii. The experiment in a line: Brine shrimp lethality test. As to conditions: 48 h exposure, 0.05–5.0% (w/v) tested.

For `Cc1ccc(S(=O)(=O)O)cc1.[Na]` [PTS, sodium p-toluenesulfonate], the LC50 was 0.21%.

(Values after PMC12196810, “A Dual Bioassay for Evaluation of Embryotoxicity and Acute Toxicity of Common Solvents and Surfactants in Artemia salina” (Toxics, 2025).)
